We go through four molecules from PubChem BioAssay (Tox21).

Chains of the proteins cited; added tags and fusions are not shown.
UniProt P34981, whole entry: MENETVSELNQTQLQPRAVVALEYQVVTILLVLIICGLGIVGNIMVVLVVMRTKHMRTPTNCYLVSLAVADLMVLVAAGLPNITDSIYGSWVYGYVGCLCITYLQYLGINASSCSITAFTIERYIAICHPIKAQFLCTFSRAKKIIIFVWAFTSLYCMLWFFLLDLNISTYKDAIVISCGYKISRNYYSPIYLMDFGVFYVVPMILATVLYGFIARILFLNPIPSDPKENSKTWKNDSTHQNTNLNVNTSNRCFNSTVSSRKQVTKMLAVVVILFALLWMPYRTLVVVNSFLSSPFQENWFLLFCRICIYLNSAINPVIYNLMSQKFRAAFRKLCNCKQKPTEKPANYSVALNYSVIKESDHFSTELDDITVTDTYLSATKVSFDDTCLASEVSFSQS
UniProt P10635, whole entry: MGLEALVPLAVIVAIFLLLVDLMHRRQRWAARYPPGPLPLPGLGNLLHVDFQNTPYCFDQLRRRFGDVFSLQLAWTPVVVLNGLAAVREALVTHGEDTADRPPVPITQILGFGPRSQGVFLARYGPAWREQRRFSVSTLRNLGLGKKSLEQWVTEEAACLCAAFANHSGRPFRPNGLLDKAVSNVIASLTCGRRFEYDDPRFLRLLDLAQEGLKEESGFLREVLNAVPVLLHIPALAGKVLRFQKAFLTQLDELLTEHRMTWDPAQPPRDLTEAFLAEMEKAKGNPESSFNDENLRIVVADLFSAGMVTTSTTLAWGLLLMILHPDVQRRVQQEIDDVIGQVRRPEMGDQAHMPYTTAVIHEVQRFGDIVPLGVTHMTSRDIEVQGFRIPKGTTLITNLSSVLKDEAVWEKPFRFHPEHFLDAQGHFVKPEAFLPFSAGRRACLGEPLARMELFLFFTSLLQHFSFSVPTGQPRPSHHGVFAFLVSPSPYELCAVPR
UniProt P33261, whole entry: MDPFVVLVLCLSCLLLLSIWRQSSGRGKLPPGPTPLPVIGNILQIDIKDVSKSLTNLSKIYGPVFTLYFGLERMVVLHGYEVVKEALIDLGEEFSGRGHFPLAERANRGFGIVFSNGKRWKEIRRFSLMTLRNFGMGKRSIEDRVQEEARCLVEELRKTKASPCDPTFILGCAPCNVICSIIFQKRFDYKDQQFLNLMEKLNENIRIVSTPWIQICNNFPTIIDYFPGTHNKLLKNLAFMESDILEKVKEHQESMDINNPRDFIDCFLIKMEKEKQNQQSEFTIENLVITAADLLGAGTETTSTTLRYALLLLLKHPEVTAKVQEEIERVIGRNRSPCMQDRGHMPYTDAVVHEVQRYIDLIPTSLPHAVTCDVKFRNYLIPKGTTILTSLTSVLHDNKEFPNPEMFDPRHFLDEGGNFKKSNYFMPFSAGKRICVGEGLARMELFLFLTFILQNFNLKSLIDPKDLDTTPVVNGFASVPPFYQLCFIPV
UniProt P11712, whole entry: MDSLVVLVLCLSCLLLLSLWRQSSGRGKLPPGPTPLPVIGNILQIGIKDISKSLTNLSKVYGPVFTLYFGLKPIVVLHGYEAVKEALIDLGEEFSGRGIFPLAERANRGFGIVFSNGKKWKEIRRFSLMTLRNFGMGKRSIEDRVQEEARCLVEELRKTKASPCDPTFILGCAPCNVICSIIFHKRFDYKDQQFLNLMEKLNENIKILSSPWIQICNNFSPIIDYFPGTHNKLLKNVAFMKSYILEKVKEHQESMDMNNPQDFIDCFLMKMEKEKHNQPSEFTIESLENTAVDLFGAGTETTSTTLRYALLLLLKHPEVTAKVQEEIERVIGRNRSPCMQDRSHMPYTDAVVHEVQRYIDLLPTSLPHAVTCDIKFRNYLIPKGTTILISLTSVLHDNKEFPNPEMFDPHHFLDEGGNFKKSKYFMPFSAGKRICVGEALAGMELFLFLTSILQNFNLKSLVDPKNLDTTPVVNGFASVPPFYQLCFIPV
UniProt P05177, whole entry: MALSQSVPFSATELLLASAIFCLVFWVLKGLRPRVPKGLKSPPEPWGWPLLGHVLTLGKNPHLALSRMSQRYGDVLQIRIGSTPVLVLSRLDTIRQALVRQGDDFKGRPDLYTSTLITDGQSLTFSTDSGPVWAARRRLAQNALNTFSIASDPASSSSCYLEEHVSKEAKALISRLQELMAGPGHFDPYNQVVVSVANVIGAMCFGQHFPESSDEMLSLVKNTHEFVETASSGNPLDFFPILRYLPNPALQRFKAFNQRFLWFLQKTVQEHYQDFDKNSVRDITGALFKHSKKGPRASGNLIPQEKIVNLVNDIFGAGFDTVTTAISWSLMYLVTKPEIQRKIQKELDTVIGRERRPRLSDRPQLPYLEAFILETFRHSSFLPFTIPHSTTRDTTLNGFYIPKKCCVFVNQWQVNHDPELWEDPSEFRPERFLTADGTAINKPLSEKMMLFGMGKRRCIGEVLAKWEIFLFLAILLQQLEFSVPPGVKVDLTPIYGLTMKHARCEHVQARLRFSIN
UniProt P06401, whole entry: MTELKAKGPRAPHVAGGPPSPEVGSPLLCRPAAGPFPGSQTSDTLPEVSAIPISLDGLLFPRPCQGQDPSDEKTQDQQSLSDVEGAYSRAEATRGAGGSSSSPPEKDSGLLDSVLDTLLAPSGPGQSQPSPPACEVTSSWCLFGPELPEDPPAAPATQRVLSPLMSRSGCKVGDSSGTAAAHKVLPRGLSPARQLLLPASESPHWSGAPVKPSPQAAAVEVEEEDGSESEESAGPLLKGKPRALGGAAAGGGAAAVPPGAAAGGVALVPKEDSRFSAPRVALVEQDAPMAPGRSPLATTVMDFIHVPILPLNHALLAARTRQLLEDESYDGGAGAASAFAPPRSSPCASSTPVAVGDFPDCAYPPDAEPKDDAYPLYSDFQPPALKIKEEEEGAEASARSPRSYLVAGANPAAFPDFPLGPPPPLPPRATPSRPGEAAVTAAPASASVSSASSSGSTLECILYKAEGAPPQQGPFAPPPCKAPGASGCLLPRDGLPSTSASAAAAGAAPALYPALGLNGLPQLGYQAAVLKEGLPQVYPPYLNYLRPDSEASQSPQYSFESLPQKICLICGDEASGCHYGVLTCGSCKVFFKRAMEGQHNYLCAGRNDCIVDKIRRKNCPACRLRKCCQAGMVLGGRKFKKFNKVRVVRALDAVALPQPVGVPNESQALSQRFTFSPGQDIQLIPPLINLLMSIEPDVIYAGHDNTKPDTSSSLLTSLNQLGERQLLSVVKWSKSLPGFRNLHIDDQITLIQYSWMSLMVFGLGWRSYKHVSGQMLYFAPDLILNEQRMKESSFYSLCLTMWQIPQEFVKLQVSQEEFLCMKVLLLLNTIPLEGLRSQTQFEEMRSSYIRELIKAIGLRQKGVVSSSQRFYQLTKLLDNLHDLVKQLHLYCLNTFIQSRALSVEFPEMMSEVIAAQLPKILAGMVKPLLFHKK
UniProt O75469, whole entry: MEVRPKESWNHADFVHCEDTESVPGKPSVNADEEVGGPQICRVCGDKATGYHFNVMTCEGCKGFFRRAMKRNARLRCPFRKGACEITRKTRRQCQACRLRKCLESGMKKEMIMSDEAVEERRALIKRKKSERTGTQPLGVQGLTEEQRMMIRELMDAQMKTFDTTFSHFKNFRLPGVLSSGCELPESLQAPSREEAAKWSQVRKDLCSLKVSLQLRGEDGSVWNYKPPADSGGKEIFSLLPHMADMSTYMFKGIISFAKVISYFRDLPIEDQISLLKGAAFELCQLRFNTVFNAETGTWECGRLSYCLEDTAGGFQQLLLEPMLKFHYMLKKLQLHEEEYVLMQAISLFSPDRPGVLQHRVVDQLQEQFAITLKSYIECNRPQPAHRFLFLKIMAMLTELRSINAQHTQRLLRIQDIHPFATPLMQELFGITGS

Experiment [1] can be described thus: qHTS assay to identify small molecule agonists of the TGF-beta/Smad signaling pathway (AID 1346859; active = well fitted activation curve with a large enough effect in the signal ratio in the repeat runs, not every such curve was filed as active; the % refers to the signal ratio; also: % is scaled to controls: 0 for no effect and ±100 for the full control effect). The conditions noted are these: SBE-bla HEK293T, TGF-beta/Smad beta-lactamase reporter, 5 h. Put shortly:
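Stable Smad binding element-beta-lactamase HEK 293T cells; 5 hr compound exposure at 37 C under 5% CO2; 2 hr room-temperature substrate step; fluorescence excited at 405 nm, collected at 460 nm and 530 nm.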
In general terms: Quantitative high-throughput screening tests each substance at several concentrations.

In experiment [2] the target is Thyrotropin-releasing hormone receptor (Homo sapiens) (UniProt P34981). Kind of experiment: qHTS assay to identify small molecule antagonists of the thyrotropin-releasing hormone receptor (TRHR) signaling pathway (AID 1346877; active = well fitted inhibition curve with a large enough effect in the repeat runs, not every such curve was filed as active; also: % is scaled to controls: 0 for no effect and ±100 for the full control effect). The settings on record: TRHR-HEK293, TRH-induced calcium fluorescence, antagonist mode.
Experiment [3] has the same target. Kind of experiment: qHTS assay to identify small molecule agonists of the thyrotropin-releasing hormone receptor (TRHR) signaling pathway (AID 1346891; calls by dose curve;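 also: HEK293 cells expressing TRHR with calcium dye readout; % is scaled to controls: 0 for no effect and ±100 for the full control effect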). The conditions noted are these: TRHR-HEK293 calcium fluorescence, agonist mode.
Experiment [4] deals with Cytochrome P450 2D6 (Homo sapiens) (UniProt P10635). Kind of experiment: Cytochrome P450 Family 2 Subfamily D Member 6 (CYP2D6) small molecule antagonists: luciferase reporter qHTS assay (AID 1671196). Also: nearly all actives have a fitted effect of over 50% in size. Also: potency is read from the fitted curve at half-maximal effect. The settings on record: P450-Glo CYP2D6 enzyme assay, luciferin luminescence, 1 h; series mostly up to 115 µM. In a few lines: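 Luminescence (RLU), read 20 min after detection reagent, indicated CYP2D6 conversion of proluciferin to luciferin during a 1 h NADPH-dependent reaction at room temperature.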

Experiment [5] addresses Cytochrome P450 2C19 (Homo sapiens) (UniProt P33261). Kind of experiment: Cytochrome P450 Family 2 Subfamily C Member 19 (CYP2C19) small molecule antagonists: luciferase reporter qHTS assay (AID 1671197). Also: nearly all actives have a fitted effect of over 65% in size. Also: potency is read from the fitted curve at half-maximal effect. The settings on record: P450-Glo CYP2C19 enzyme, luciferin luminescence, 1 h; series mostly up to 115 µM. In a few lines:
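P450-Glo CYP2C19 screening system; proluciferin substrate; DMSO compound stocks; 10 min RT preincubation; NADPH regeneration, 1 h at 37C; luciferin detection reagent, 20 min RT; luminescence as RLU.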
In general terms: A reporter such as luciferase makes a cellular process visible.

The target of experiment [6] is Cytochrome P450 2C9 (Homo sapiens) (UniProt P11712). Kind of experiment: Cytochrome P450 Family 2 Subfamily C Member 9 (CYP2C9) small molecule antagonists: luciferase reporter qHTS assay (AID 1671198). Also: % is scaled to controls: 0 for no effect and ±100 for the full control effect; nearly all actives have a fitted effect of over 50% in size. The conditions noted are these: P450-Glo CYP2C9 enzyme assay, luciferin luminescence. Put shortly: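 Enzyme-substrate mix preincubated with compound 10 min at room temperature; reaction started with NADPH regeneration solution, 1 h 37C. Luminescent luciferin product read after 20 min detection reagent.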

Experiment [7] addresses Cytochrome P450 1A2 (Homo sapiens) (UniProt P05177). Kind of experiment: Cytochrome P450 Family 1 Subfamily A Member 2 (CYP1A2) small molecule antagonists: luciferase reporter qHTS assay (AID 1671199). Also: % is scaled to controls: 0 for no effect and ±100 for the full control effect; nearly all actives have a fitted effect of over 50% in size. The settings on record: P450-Glo CYP1A2 enzyme, luciferin luminescence, 1 h; at 115 µM (top of the series) unless noted.
The nature of experiment [8]: qHTS assay to identify small molecule agonists of the estrogen receptor alpha (ER-alpha) signaling pathway in the presence of an antagonist - cell viability counter screen (AID 1259386).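 Also: cells exposed to compounds for 22 h at 37 °C before the viability read; % is scaled to controls: 0 for no effect and ±100 for the full control effect; nearly all actives have a fitted effect of over 30% in size.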 The settings on record: VM7Luc4E2 viability, CellTiter-Fluor fluorescence, 22 h; at 92.4 µM (top of the series). Put shortly:
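ICI-182,780 at 10.0nM final accompanies the compound titration (15 concentrations, 22hr, 37C) on VM7Luc4E2 cells. The CellTiter-Fluor fluorescence readout runs in the same wells as the luciferase assay.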

Experiment [9] addresses Progesterone receptor (Homo sapiens) (UniProt P06401). Kind of experiment: qHTS assay to identify small molecule agonists of the progesterone receptor (PR) signaling pathway (AID 1346784; calls by dose curve; also: % is scaled to controls: 0 for no effect and ±100 for the full control effect; nearly all actives have a fitted effect of over 30% in size). The conditions noted are these: PR-UAS-bla HEK293T, beta-lactamase FRET ratio, 16 h; at 92.4 µM (top of the series). In a few lines: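 Using charcoal-stripped serum (2%) to limit endogenous steroids, PR-UAS-bla HEK 293T cells received compounds for 16 hr at 37C after 6 hr plating; beta-lactamase FRET fluorescence was recorded following 2 hr substrate loading at room temperature.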

A short description of experiment [10]: qHTS assay to identify small molecule agonists of the progesterone receptor (PR) signaling pathway - cell viability counter screen (AID 1346799; calls by dose curve; also: % is scaled to controls: 0 for no effect and ±100 for the full control effect; nearly all actives have a fitted effect of over 45% in size). The settings on record: PR-UAS-bla HEK293T viability, CellTiter-Glo luminescence, 16 h; at 92.4 µM (top of the series). In a few lines:
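Cytotoxicity in PR-bla HEK293T cells: 16 h compound, 37C; CellTiter-Glo added post-FRET read; luminescence after 30 min RT.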

Experiment [11] in a line: qHTS assay to identify small molecule antagonists of the TGF-beta/Smad signaling pathway - cell viability counter screen (AID 1346824). Also: % is scaled to controls: 0 for no effect and ±100 for the full control effect; nearly all actives have a fitted effect of over 50% in size. The conditions noted are these: SBE-bla HEK293T viability, CellTiter-Glo luminescence; at 76.8 µM (top of the series). In a few lines: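 Cytotoxicity counter-screen run in the same wells as the beta-lactamase Smad reporter read: CellTiter-Glo luminescence after 30 min at room temperature. HEK 293T SBE-bla cells had 5 hr compound exposure at 37 C with TGF-beta1 (0.25 ng/mL stock).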

Experiment [12] is described as follows: qHTS assay to identify small molecule agonists of the TGF-beta/Smad signaling pathway - cell viability counter screen (AID 1346829). Also: top concentration of the series differs between compounds; % is scaled to controls: 0 for no effect and ±100 for the full control effect; nearly all actives have a fitted effect of over 45% in size. The settings on record: SBE-bla HEK293T viability, CellTiter-Glo luminescence, 5 h; at 76.8 µM (top of the series). In a few lines: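 Compound-treated SBE-bla HEK 293T cells (5 hr, 37 C) were assessed for viability with CellTiter-Glo in parallel with the reporter read.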

Experiment [13] can be described thus: Human pregnane X receptor (PXR) small molecule agonists, qHTS cell viability counter screen (AID 1346977). The conditions noted are these: PXR-Luc HepG2 viability, CellTiter-Fluor, 24 h; at 92.4 µM (top of the series). Put shortly: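 Readout is CellTiter-Fluor fluorescence from PXR-Luc HepG2 cells. Plated cells rested 5hr, then were treated with compounds for 24hr at 37C and 5% CO2, with reagent present during the last hour.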

Experiment [14] is described as follows: Caspase-3/7 induction in HepG2 cells by small molecules, qHTS assay (AID 1346978). Also: % is scaled to controls: 0 for no effect and ±100 for the full control effect; nearly all actives have a fitted effect of over 15% in size. The conditions noted are these: HepG2 caspase-3/7 activation, Caspase-Glo luminescence, 17 h; at 92.4 µM (top of the series). Put shortly: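 Caspase-3/7 induction was measured by Caspase-Glo 3/7 luminescence (30 min, room temperature) after a 17 hr compound exposure of wild-type HepG2 cells seeded at 2,000 per well and pre-incubated 5 hr.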

A short description of experiment [15]: Caspase-3/7 induction in CHO-K1 cells by small molecules, qHTS assay (AID 1346980). Also: nearly all actives have a fitted effect of over 15% in size. Also: potency is read from the fitted curve at half-maximal effect. The settings on record: CHO-K1 caspase-3/7 induction, Caspase-Glo luminescence, 17 h; series mostly up to 92.4 µM. In a few lines:
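Luminescent Caspase-Glo 3/7 read (30min, room temperature) quantified apoptosis induction. Cells were wild-type CHO-K1, treated with compound for 17hr at 37 C and 5% CO2.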

Experiment [16] is described as follows: Caspase-3/7 induction in HepG2 cells by small molecules, qHTS cell viability counter screen (AID 1346981). Also: % is scaled to controls: 0 for no effect and ±100 for the full control effect; nearly all actives have a fitted effect of over 30% in size. The settings on record: CellTiter-Fluor fluorescence, 17 h; at 92.4 µM (top of the series). In a few lines: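 Multiplexed with the caspase-3/7 assay: HepG2 cells, 16 hr compound treatment, CellTiter-Fluor viability detection by fluorescence.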
In experiment [17] the target is Nuclear receptor subfamily 1 group I member 2 (Homo sapiens) (UniProt O75469). Kind of experiment: Human pregnane X receptor (PXR) small molecule agonists, qHTS assay (AID 1346982). Also: potency is read from the fitted curve at half-maximal effect; nearly all actives have a fitted effect of over 35% in size. The settings on record: PXR-Luc HepG2, CYP3A4 luciferase reporter, 24 h. In a few lines:
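We seeded PXR-Luc HepG2 cells in assay medium containing 5% charcoal-stripped FBS, added compounds 5 hr later, incubated 24 hr, and read luminescence with ONE-Glo reagent.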

A short description of experiment [18]: qHTS assay to identify small molecule antagonists of the progesterone receptor (PR) signaling pathway - cell viability counter screen (AID 1346798). The settings on record: PR-UAS-bla HEK293T viability, CellTiter-Glo luminescence, 16 h; at 92.4 µM (top of the series). Put shortly: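 ATP content as viability readout: CellTiter-Glo luminescence, 30 min room temperature, in PR-UAS-bla HEK293T cells after 16 hr compound/R5020 treatment at 37C and 5% CO2.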

The nature of experiment [19]: Caspase-3/7 induction in CHO-K1 cells by small molecules, qHTS cell viability counter screen (AID 1346979). Also: % is scaled to controls: 0 for no effect and ±100 for the full control effect; nearly all actives have a fitted effect of over 35% in size. The conditions noted are these: CellTiter-Fluor fluorescence, 17 h; at 92.4 µM (top of the series). Put shortly:
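To flag cytotoxic compounds, treated CHO-K1 wild-type cells were given CellTiter-Fluor at 16hr and read fluorescently after 1hr at 37C; the caspase-3/7 luminescence was measured in these same wells.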

The target of experiment [20] is Progesterone receptor (Homo sapiens) (UniProt P06401). Kind of experiment: qHTS assay to identify small molecule antagonists of the progesterone receptor (PR) signaling pathway (AID 1346795; active = well fitted inhibition curve with a large enough effect in the signal ratio in the repeat runs, not every such curve was filed as active; the % refers to the signal ratio; also: % is scaled to controls: 0 for no effect and ±100 for the full control effect). The settings on record: PR-UAS-bla HEK293T, beta-lactamase FRET ratio, 16 h; at 92.4 µM (top of the series). In a few lines:
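Inhibition of R5020-induced (1 nM final) beta-lactamase reporter signal in PR-UAS-bla HEK293T cells was scored by FRET fluorescence after overnight (16 hr) compound treatment.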

The list shows a part of the results, in another mix than the full data. Records with an inconclusive call do not appear. Activity calls are given as the source filed them. Unless noted, calls follow the shape of the dose curve; as a rule, active = well fitted curve in the direction sought with a large enough effect in the repeat runs; inconclusive = weak or mixed curves; inactive = no such curve, though single readings can be large; an effect the other way counts as inactive or inconclusive.

As for `CN(CCCl)CCCl`, the activation was inactive: -0.69% in [1] (at 35.3 µM (top of the series)), inactive: 1.84% in [1] (at 76.8 µM (top of the series)), inactive: -0.18% in [3] (at 26.5 µM (top of the series)) and inactive: -0.385% in experiment [3] (at 57.6 µM (top of the series)). For the same molecule, the activity, negative = inhibition in [2] (at 23.6 µM (top of the series)) is inactive: -4.38%; in experiment [2] (at 51.3 µM (top of the series)), inactive: -1.32%. Besides, the Potency entry in [4] and in experiment [5] was “inactive” in each case. Besides, the figures for the activity change, negative = inhibition in experiment [6] (at 53 µM (top of the series)), in experiment [6] (at 115 µM (top of the series)) and in experiment [7] were inactive: -0.285%, inactive: -17.7% and inactive: 1.26% [at 53 µM], respectively.
Regarding `O=[N+]([O-])C(Cl)(Cl)Cl`, the activity change, negative = cytotoxicity is inactive: 0.532% in [8]; inactive: -0.388% in experiment [10]; inactive: -20.9% in [12]; inactive: -21.9% in [13]; inactive: 0.23% in experiment [16]. The activation in experiment [9] was inactive: 1.66%; in [1] (at 76.8 µM (top of the series)), inactive: -5.21%; in [3] (at 57.6 µM (top of the series)), inactive: 0.0162%. Also, the viability change, negative = cytotoxic in [11] is inactive: -20%. In addition, in experiment [2] (at 51.3 µM (top of the series)), the activity, negative = inhibition is inactive: -0.842%. Besides, the caspase activation in [14] is inactive: 2.68%. In addition, the Potency in experiment [15] is active: 13.6 µM; in experiment [17], active: 10.8 µM; in [5], active: 79.4 µM. For the same molecule, the Potency entry in [4] is “inactive”. In addition, the activity change, negative = inhibition in [6] (at 115 µM (top of the series)) is inactive: -19.8%.
For `CCC(=O)N(c1ccccc1)C1(COC)CCN(CCc2cccs2)CC1`, the activity change, negative = cytotoxicity in experiment [8] is inactive: -8%; in experiment [18], inactive: 8.22%; in experiment [10], inactive: -2.08%; in [12], inactive: -1.11%; in experiment [19], inactive: -10.3%. Also, the results for the activation in [9], in experiment [1] (at 76.8 µM (top of the series)) and in experiment [3] (at 57.6 µM (top of the series)) were inactive: -3.31%, inactive: -6.74% and inactive: 0.0975%, respectively. In [11], the viability change, negative = cytotoxic is inactive: -1.55%. For the same molecule, the activity, negative = inhibition in experiment [2] (at 51.3 µM (top of the series)) is inactive: -1.04%. Also, the caspase activation in experiment [14] was inactive: 0.215%. Moreover, the Potency result in [15] is “inactive”. Moreover, the values for the Potency in [17], in [4] and in [5] were active: 2.73 µM, active: 1.42 µM and active: 39.9 µM, respectively. Moreover, the activity change, negative = inhibition in experiment [7] was inactive: -11%.
With `CCC(=O)N(c1ccccc1)C1(COC)CCN(CCn2nnn(CC)c2=O)CC1`, the activity change, negative = cytotoxicity in experiment [8] was inactive: -3.42%; in experiment [18], inactive: -23.8%; in experiment [10], inactive: -22%; in experiment [12] it was inactive: 1.01%; in experiment [13], inactive: 3.47%; in experiment [19] it was inactive: -0.495%. The activity change, negative = cytotoxicity in [16] was inactive: -0.218%. Further, the activation is inactive: -2.9% in [9], inactive: 3.09% in experiment [1] (at 76.8 µM (top of the series)) and inactive: -0.0504% in experiment [3] (at 57.6 µM (top of the series)). The results for the activity change, negative = inhibition in [20] and in experiment [7] were inactive: -2.75% and inactive: -5.26%, respectively. Further, the viability change, negative = cytotoxic in experiment [11] was inactive: 4.95%. For the same molecule, the activity, negative = inhibition in experiment [2] (at 51.3 µM (top of the series)) was inactive: 5.65%. The caspase activation in experiment [14] was inactive: 0.682%. In addition, the Potency result in [15], in experiment [4] and in experiment [5] was “inactive” throughout.
